Target: RBM39RRM2-biotin (Homo sapiens, UniProt Q14498)
Experiment: TR-FRET titration of BodipyFL-E7820 probe to RBM39RRM2-biotin
Details: RBM39RRM2-biotin alone

Amino acid sequences for entries named in this document (tags omitted). Residues count along the entry.
UniProt Q14498, 245-332 limits assumed: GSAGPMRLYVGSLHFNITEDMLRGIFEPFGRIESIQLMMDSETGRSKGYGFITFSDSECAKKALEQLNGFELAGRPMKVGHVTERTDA

Binding to RBM39RRM2: only observed for DDB1ΔB-DCAF15biotin
SMILES: CC1=CC(C)=[N+]2C1=Cc1ccc(CCC(=O)NCCCCCCOc3ccc(S(=O)(=O)Nc4ccc(C)c5c(C#N)c[nH]c45)cc3C#N)n1[B-]2(F)F

Source: patent US12428459B2, “Protein tag to induce ligand dependent degradation of protein/protein-fusions” (DANA-FARBER CANCER INSTITUTE, INC., priority 2019, dated 2025)
